This is an account of results in paper PMC7007416 (Analytical and Bioanalytical Chemistry, 2019).

The data set concerns Caco-2 and HT29-MTX-E12 cells (ratio 3:1). Conditions: 24 h exposure, WST-1; negative control medium with 0.5% DMSO. How it is done: With the WST-1 assay, mitochondrial activity of the cell is measured by the conversion of WST-1 into formazan dye by mitochondrial dehydrogenase enzymes. The assay is performed as follows: Caco-2 and HT29-MTX-E12 cells (ratio 3:1) were seeded in Greiner Bio-One (Alphen aan den Rijn, The Netherlands) flat-bottom 96-well plates at a concentration of 1 × 10^5 cells/mL in cell culture medium (100 μL/well). Plates were incubated for 24 h at 37 °C under 5% CO2. […] Then, the exposure medium containing (dilutions of) the compounds of interest was discarded and the cells were washed with pre-warmed HBSS. Subsequently, WST-1 reagent (in cell culture medium without phenol red) was added to the cells (1:10, 100 μL/well). After 1.5 h of incubation at 37 °C, the absorbance of each well was measured at 440 nm using a Bio-Tek (Winooski, VT, USA) Synergy HT Multi-Mode microplate reader.
On the technique in general: Tetrazolium dyes change colour on reduction, which living cells bring about.

Turning to ergotamin(in)e D-tartrate, the non-toxic concentration was at most 10 µg/mL.
